In patent US20200022967A1, “Use of 2-carboxamide cycloamino urea derivatives in the treatment of EGFR dependent diseases or diseases that have acquired resistance to agents that target EGFR family members” (Novartis AG, priority 2010, published 2020):

Tests used:
BT-474 tumors = assay: BT474 orthotopic xenograft, Compound A and trastuzumab combination (Example 3); type: in vivo, mice
Description: The Compound was fully dissolved in NMP. Then, PEG300 and liquified Solutol were added (in sequence with vortexing after addition of each reagent).
Where applicable, data is presented as mean±SEM.

NCI-N87 tumors [1] = assay: NCI-N87 xenograft in CB17 SCID mice, Compound A alone and with trastuzumab (Example 4); type: in vivo
Description: Experiments were performed in female CB17 SCID mice (Fox Chase SCID®, CB17/lcr-Prkdc^scid, Charles River) approximately 7-8 weeks of age and having a body weight (BW) range of 14.7-21.2 g at treatment start. All animals were fed ad libitum water (reverse osmosis, 1 ppm CI) and NIH 31 Modified and Irradiated Lab Diet® consisting of 18.0% crude protein, 5.0% crude fat, and 5.0% crude fiber. The mice were housed on irradiated Enrich-O'cobs™ Laboratory Animal Bedding in static microisolators on a 12-hour light cycle at 21-22° C. and 40-60% humidity.
NCI-N87 cells (obtained from the American Type Culture Collection), which are of gastric origin and ErbB2 amplified, were maintained as exponentially growing cultures in RPMI-1640 medium supplemented with 10% fetal bovine serum, 2 mM glutamine, 100 units/mL penicillin G sodium, and 100 μg/mL streptomycin sulfate. The tumor cells were cultured in tissue culture flasks in a humid incubator at 37° C., in an atmosphere of 5% CO2 and 95% air. Cells were harvested with 1× trypsin and suspended at a concentration of 5×10^7 cells/mL in cold phosphate-buffered saline with 50% Matrigel. Each mouse was injected subcutaneously in the right flank with 1×10^7 cells (0.2 mL cell suspension). Tumor volumes were measured with calipers and determined according to the formula: width^2×length/2, and tumor weight estimated with the assumption that 1 mg is equivalent to 1 mm^3 of tumor volume. Nine days after tumor implantation (on Day 1 of the study), mice with individual tumor volumes of 126-320 mm^3 were sorted into 12 groups of eight mice with a group mean tumor volume of 231-239 mm^3.
Compound A was formulated in NMP/PEG300/Solutol HS15/deionized water (10:30:20:40% vol/vol). The Compound was fully dissolved in NMP. Then, PEG300 and liquified Solutol were added (in sequence with vortexing after addition of each reagent). Water was added prior to administration to the animals. Fresh dosing solutions were prepared weekly and stored at 4° C., protected from light.
Trastuzumab (Herceptin®, Genentech, 21 mg/mL) was freshly diluted with saline (Vehicle 2) on each day of dosing.
(§1) Treatments started 9 days post tumor cell implantation and lasted for 30 consecutive days (or until tumor volume=2000 mm^3). […] Groups 4, 9 and 12 were stopped early.
A treatment that achieves a T/C value of 40% or less would be classified as potentially therapeutically active.
Where applicable, data is presented as mean±SEM. Statisticial and graphical analyses was performed with Prism 3.03 (GraphPad) for Windows. For all tests, the level of significance of differences was done using ANOVA, with Bartlett's test; and a post-hoc Dunnett's multiple comparison test compared the mean change for each drub-treated group to the mean for Group 1. […] The significance of differences between the median volume changes for drug-treated groups and Group 1 was analyzed post hoc with Dunn's multiple comparison test. The two-tailed statistical analyses were conducted at P=0.05. Prism summarizes test results as not significant (ns) at P>0.05, significant (symbolized by “*”) at 0.01<P≤0.05, very significant (symbolized by “**”) at 0.001<P≤0.01, and extremely significant (symbolized by “***”) at P≤0.001.

[2] = Body weight nadir and deaths in NCI-N87 trastuzumab study (Example 4); type: in vivo, mice
Text: as §1

HBCx-5 xenograft tumor = assay: HBCx-5 breast cancer xenograft, antitumor activity (Example 5); type: in vivo, mice; conditions: trastuzumab 10 mg/kg i.p. once a week for 6 weeks, single agent; not significant
Description: Compound A was suspended at mg/ml in 0.5% methylcellulose (Sigma Aldrich, St. Louis, Mo.). It was homogenized by stirring vortexing and sonication. The suspension was stored at 4° C. for 7 days protected from light. Trastuzumab (Herceptin®, Roche) solution at 1 mg/ml was prepared on each administration day. Stock solution at 21 mg/ml was diluted just before administration at 1 mg/ml with sterile water for injection. Capecitabine (Xeloda®, Roche) at […] was kept at 4° C. protected from light. Capecitabine pellets were crushed and suspended in NaCl 0.9%.
Compound A was administered daily by oral gavage (p.o.) at 50 mg/kg for 42 days, alone or in combination with trastuzumab. Trastuzumab was administered at 10 mg/kg, i.p., once a week for 6 weeks. Dose was body weight adjusted at each injection.
Capecitabine was administered by oral gavage (p.o.) at […], five times per week for two weeks (i.e., five consecutive dosing days/week). After a one week rest, a second treatment cycle was performed.

NCI-N87 tumors [3] = assay: NCI-N87 xenograft in CB17 SCID mice, Compound A alone and with lapatinib (Example 6); type: in vivo
Description: Using the study protocol described in Example 4, the effect of Compound A was studied as monotherapy and in combination with lapatinib in NCI-N87 gastric cancer CB17 SCID mouse xenograft model. […] The NCI-N87 cells were harvested with 5× trypsin. Eight days after tumor implantation (on Day 1 of the study), mice with an individual tumor volume of 88-196 mm^3 were sorted into 10 groups of ten mice with a group mean tumor volume of 143-149 mm^3.
A fresh lapatinib suspension was prepared once weekly, stored at 4° C., and protected from light.
Where applicable, data is presented as mean±SEM. […] Time to endpoint (TTE) is calculated by the equation: TTE=(log10(endpoint volume)−b)/m, where TTE is expressed in days, endpoint volume is in mm3, b is the intercept and m is the slope of the line obtained by linear regression of a log-transformed tumor growth data set. Treatment efficacy was determined from Tumor Growth Delay (TGD), which was defined as the increase in the median time to endpoint (TTE) for a treatment group compared to the control group (TGD=T−C), expressed in days, or as a percentage of the median TTE of the control group (% TGD=((T−C)/C)×100), wherein T=median TTE for a treatment group and C=median TTE for the designated control group.
Statistical and graphical analyses was performed with Prism 3.03 (GraphPad) for Windows. […] Survival was analyzed by the Kaplan-Meier method. […]

[4] = Group 5 (8 animals): trastuzumab 3 mg/kg i.p. twice weekly
[5] = Group 6 (8 animals): trastuzumab 10 mg/kg i.p. twice weekly

Row | Molecule | Change Tumor Volume (BT-474 tumors; A: trastuzumab 3 mg/kg i.p. three times per week, control C 584.2) | A/C (BT-474 tumors; change tumor volume ratio, trastuzumab 3 mg/kg vs control) | T/C (BT-474 tumors; trastuzumab 3 mg/kg i.p. three times per week, single agent) [%] | antitumor effect (BT-474 tumors; trastuzumab 10 mg/kg i.p. three times per week, single agent, p<0.05 Mann-Whitney) | Regressions CR (complete regression) (NCI-N87 tumors [1]; [4]) | Regressions PR (partial regression) (NCI-N87 tumors [1]; [4]) | T/C or T/T0 (NCI-N87 tumors [1]; Group 5 (8 animals): trastuzumab 3 mg/kg i.p. twice weekly, vs G1 ns) [%] | Regressions CR (complete regression) (NCI-N87 tumors [1]; [5]) | Regressions PR (partial regression) (NCI-N87 tumors [1]; [5]) | T/C or T/T0 (NCI-N87 tumors [1]; Group 6 (8 animals): trastuzumab 10 mg/kg i.p. twice weekly, vs G1 **) [%] | Deaths (TR/NTR) [2, 4] | Deaths (TR/NTR) [2, 5] | T/C (HBCx-5 xenograft tumor) [%] | T-C (NCI-N87 tumors [3]; Group 4: lapatinib 50 mg/kg p.o. b.i.d.) [days] | Median TTE (NCI-N87 tumors [3]; Group 5 (10 animals): lapatinib 100 mg/kg p.o. once daily for 21 days, control 26.2, vs G1 **) [days]
1 | trastuzumab [reference compound] | 209.2 | 0.358 | 35.8 | statistically significant antitumor effect | CR: 0 | PR: 0, | 50 | CR: 0 | PR: 0, | 12 | 0 | 0 | 81.44 | – | –
2 | CS(=O)(=O)CCNCc1ccc(-c2ccc3ncnc(Nc4ccc(OCc5cccc(F)c5)c(Cl)c4)c3c2)o1 [lapatinib] | – | – | – | – | – | – | – | – | – | – | – | – | – | 21.5 | 42.6
